Experimental data from patent US20060246555A1, “Degradation of cyclic nitramines” (published 2006).
Values joined by “and” are separate entries in the source; they are usually repeats but may differ in a detail not shown here. Identical values can stand only once. Only a part of the results on these compounds is given; other tests are left out.

Amino acid sequences for entries named in this document (tags omitted).
UniProt P36858, whole entry: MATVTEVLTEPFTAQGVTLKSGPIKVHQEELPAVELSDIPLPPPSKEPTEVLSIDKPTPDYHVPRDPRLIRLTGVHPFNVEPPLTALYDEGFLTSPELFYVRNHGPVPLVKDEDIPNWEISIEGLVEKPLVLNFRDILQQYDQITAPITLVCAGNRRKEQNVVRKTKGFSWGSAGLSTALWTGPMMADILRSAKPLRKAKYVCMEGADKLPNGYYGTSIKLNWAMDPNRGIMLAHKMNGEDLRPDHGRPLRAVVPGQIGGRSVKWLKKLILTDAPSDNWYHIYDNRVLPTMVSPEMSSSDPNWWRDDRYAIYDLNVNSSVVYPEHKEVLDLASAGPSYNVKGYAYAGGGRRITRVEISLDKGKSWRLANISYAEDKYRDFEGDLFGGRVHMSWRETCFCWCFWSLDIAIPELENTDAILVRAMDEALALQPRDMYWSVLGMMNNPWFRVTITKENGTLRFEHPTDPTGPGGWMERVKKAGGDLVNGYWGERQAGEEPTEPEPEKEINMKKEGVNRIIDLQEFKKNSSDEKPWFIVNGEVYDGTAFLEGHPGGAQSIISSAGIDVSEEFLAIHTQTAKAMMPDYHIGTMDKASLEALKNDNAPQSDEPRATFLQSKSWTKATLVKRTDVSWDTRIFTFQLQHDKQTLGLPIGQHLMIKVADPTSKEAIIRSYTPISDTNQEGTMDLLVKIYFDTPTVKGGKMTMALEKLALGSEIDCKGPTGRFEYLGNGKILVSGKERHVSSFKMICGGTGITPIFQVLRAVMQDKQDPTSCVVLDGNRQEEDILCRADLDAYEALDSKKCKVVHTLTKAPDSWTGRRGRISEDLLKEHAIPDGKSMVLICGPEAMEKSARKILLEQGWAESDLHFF

Columns and labels:
[1] = Alkaline hydrolysis of cyclic nitramines in aqueous solution; conditions: for Normalized molar yield of 4-NDAB / Normalized molar yield of HCHO / Normalized molar yield of N2O / Normalized molar yield of NO2^− / Normalized molar yield of NH4^+: pH 10, 30° C., moles of product per mole of reactant consumed; for C mass balance found in 4-NDAB (HNNO2CH2NHCHO, V) / C mass balance found in HCHO / N mass balance found in 4-NDAB (HNNO2CH2NHCHO, V) / N mass balance found in N2O / N mass balance found in NO2^− / C mass balance found in HCOOH / N mass balance found in NH3 measured as NH4^+: pH 10, % of reacted nitramine; for HCOO^− detected / NH4^+ / NH3 detected: pH 10, hydrolyzed product of formamide
[2] = cited from earlier work
[3] = target: Aspergillus niger NAD(P)H: Nitrate oxidoreductase (EC 1.6.6.2) (Aspergillus niger, UniProt P36858); experiment: Nitrate reductase catalyzed RDX transformation
[4] = Photolysis of RDX in aqueous solution at 350 nm
[5] = system: Diaphorase (EC 1.8.1.4) from Clostridium kluyveri; experiment: RDX biotransformation assay with diaphorase
[6] = system: Rhodococcus sp. strain DN22; experiment: Aerobic degradation of RDX with Rhodococcus sp. strain DN22
[7] = RDX transformation, 150 minutes
[8] = RDX after 16 h of photolysis at 350 nm
[9] = RDX transformation by diaphorase

For `O=[N+]([O-])N1CN([N+](=O)[O-])CN([N+](=O)[O-])CN([N+](=O)[O-])C1`, the “C mass balance, % Recovered” value ([1]; pH 10) was 90%, the “N mass balance, total of observed products” value ([1]; pH 10) was 86% and the “Normalized molar yield of 4-NDAB” value [1] was 0.859 ± 0.016. The “Normalized molar yield of HCHO” value [1] was 1.82 ± 0.04, the “Normalized molar yield of N2O” value [1] was 1.48 ± 0.06 and the “Normalized molar yield of NO2^−” value [1] was 1 and 1.15 ± 0.03. For the same compound, the extent of reaction ([1]; pH 10, 21 days) was “ca. 5%”, the “C mass balance found in 4-NDAB (HNNO2CH2NHCHO, V)” value (“C mass balance found in 4-NDAB” below) [1] was 43.8% and the “C mass balance found in HCHO” value [1] was 46.2%. The “N mass balance found in 4-NDAB (HNNO2CH2NHCHO, V)” value (“N mass balance found in 4-NDAB” below) [1] was 32.8%, the “N mass balance found in N2O” value [1] was 38.5% and the “N mass balance found in NO2^−” value [1] was 14.7%. The maximum water solubility [2] was 5 ppm.
With `O=[N+]([O-])N1CN([N+](=O)[O-])CN([N+](=O)[O-])C1` the “Total % mass recovery, carbon” value [3, 7] was 96.13% and 96.14%, the “Total % mass recovery, nitrogen” value [3, 7] was 82.10% and the “Concentration of Reactants/metabolites” value ([3]; RDX transformation, after 150 minutes of reaction, pH 7.0, 30° C., anaerobic, NADPH) was 86 µmol. For the same compound, the “% Carbon recovery” value ([3]; of total carbon mass in the transformed RDX (86 μmole)) was 100%, the “% Nitrogen recovery” value ([3]; of total nitrogen mass in the transformed RDX (86 μmole)) was 100% and the “% mass balance, carbon” value [4, 8] was 93% and 93.1%. For the same compound, the “% mass balance, nitrogen” value [4, 8] was 73% and 72.8%, the “disappearance of RDX” value ([4]; after 16 h of photolysis) was 0.46 µmol and the “C mass balance, % Recovered” value ([1]; pH 10) was 97%. The “nitrogen thought to be still in nitramide” value ([1]; pH 10) was 2.5%, the rate of hydrolysis ([1]; pH 10) was 0.00721 h⁻¹ and the “Normalized molar yield of 4-NDAB” value [1] was 0.951 ± 0.005. The “Normalized molar yield of HCHO” value [1] was 0.939 ± 0.037, the “Normalized molar yield of N2O” value [1] was 0.770 ± 0.130 and the “Normalized molar yield of NH4^+” value [1] was 0.075 ± 0.032. For the same compound, the “Normalized molar yield of NO2^−” value [1] was 0.972 ± 0.056, the “C mass balance found in 4-NDAB” value [1] was 63.4% and the “C mass balance found in HCHO” value [1] was 31.3%. For the same compound, the “C mass balance found in HCOOH” value [1] was 2.3%, the “N mass balance found in 4-NDAB” value [1] was 47.6% and the “N mass balance found in N2O” value [1] was 25.6%. The “N mass balance found in NH3 measured as NH4^+” value [1] was 1.3%, the “N mass balance found in NO2^−” value [1] was 16.2% and the “nitrogen calculated as being in the form of aqueous N2O” value ([1]; pH 10, Henry's Law) was 0.3%. The “disappearance of RDX” value ([1]; pH 10, first three hours) was 0.14 µmol, the “HCOO^− detected” value [1] was 0.18 µmol and the “NH4^+ / NH3 detected” value [1] was 0.20 µmol. The “extent to which the reaction had proceeded” value ([1]; t=316 h, pH 10) was “ca. 94%”, the maximum water solubility [2] was “ca. 50 ppm” and the “NADH consumed to biotransform 1.0 μmole of RDX” value [5] was 1.4 µmol. For the same compound, the “RDX transformation activity equivalent to 100%” value ([5]; FIG. 10, effect of oxygen experiment) was 47 μmoles RDX transformed h^−1mg^−1 protein, the “RDX transformation activity equivalent to 100%” value ([5]; FIG. 11 and 12, FMN experiments, native enzyme) was 41 μmoles RDX transformed h^−1mg^−1 protein and the “Total % mass recovery, carbon” value [5, 9] was 91% and 92%. The “Total % mass recovery, nitrogen” value [5, 9] was 92% and 91%, the “Concentration of Reactants/metabolites” value ([5]; RDX transformation, pH 7.0, 27° C., anaerobic, NADH) was 78 µmol and 78.0 µmol and the “% Carbon recovery” value ([5]; of total carbon mass in the transformed RDX (78 μmole)) was 100.0%. The “% Nitrogen recovery” value ([5]; of total nitrogen mass in the transformed RDX (78 μmole)) was 100.0%, the “C mass balance of RDX biodegradation” value [6] was 94% and the “N mass balance of RDX biodegradation” value [6] was 90%. For the same compound, the “RDX converted to dead end product 4-nitro-2,4-diaza-butanal (V)” value ([6]; aerobic) was 64%.
In the case of `O=NN1CN([N+](=O)[O-])CN([N+](=O)[O-])C1`, the “C mass balance, % Recovered” value ([1]; pH 10) was 87.8%, the “N mass balance, total of observed products” value ([1]; pH 10) was 60.45% and the rate of hydrolysis ([1]; pH 10) was 0.0283 h⁻¹. The “Normalized molar yield of 4-NDAB” value [1] was 0.842 ± 0.032, the “Normalized molar yield of HCHO” value [1] was 0.800 ± 0.027 and the “Normalized molar yield of N2O” value [1] was 0.008 ± 0.001. For the same compound, the “Normalized molar yield of NH4^+” value [1] was 0.141 ± 0.035, the “Normalized molar yield of NO2^−” value [1] was 0.935 ± 0.005 and the “C mass balance found in 4-NDAB” value [1] was 56.1%. For the same compound, the “C mass balance found in HCHO” value [1] was 26.6%, the “C mass balance found in HCOOH” value [1] was 5.05% and the “N mass balance found in 4-NDAB” value [1] was 42.1%. For the same compound, the “N mass balance found in N2O” value [1] was 0.14%, the “N mass balance found in NH3 measured as NH4^+” value [1] was 2.35% and the “N mass balance found in NO2^−” value [1] was 15.6%. The “HCOO^− detected” value [1] was 0.35 µmol and the “NH4^+ / NH3 detected” value [1] was 0.33 µmol.
With “2,4,6,8,10,12-hexanitro-2,4,6,8,10,12-hexaazaisowurtzitane” the rate of hydrolysis ([1]; pH 10) was 0.0109 h⁻¹, the “Normalized molar yield of 4-NDAB” value [1] was “not formed” and the “Normalized molar yield of HCHO” value [1] was “not formed”. The “Normalized molar yield of N2O” value [1] was 0.910 ± 0.100, the “Normalized molar yield of NH4^+” value [1] was 0.793 ± 0.049 and the “Normalized molar yield of NO2^−” value [1] was 2 and 1.91 ± 0.09. The maximum water solubility [2] was 3.6 ppm.
